94 molecules from PubChem BioAssay AID1224905 (ICCB-Longwood Screening Facility, Harvard Medical School, 2016) can be followed below.

Sequences of proteins named here, by UniProt entry; tags and fusion partners are left off.
UniProt P08753, whole entry, looked up: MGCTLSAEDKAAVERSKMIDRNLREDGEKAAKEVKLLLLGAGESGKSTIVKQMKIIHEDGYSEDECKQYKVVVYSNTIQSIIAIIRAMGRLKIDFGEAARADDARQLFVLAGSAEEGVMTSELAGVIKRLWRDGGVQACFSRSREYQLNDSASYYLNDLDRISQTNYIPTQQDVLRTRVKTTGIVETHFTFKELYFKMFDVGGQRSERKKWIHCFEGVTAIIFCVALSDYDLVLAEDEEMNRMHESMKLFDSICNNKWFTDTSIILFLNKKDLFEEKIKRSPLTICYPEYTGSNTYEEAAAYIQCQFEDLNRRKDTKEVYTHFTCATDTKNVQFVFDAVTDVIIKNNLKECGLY

Each structure is given as a SMILES string. Screen size: about 210,000 compounds; about 880 (0.42%) were called active. This is one part of a sample in which actives are shown more often than they occur. Unmarked numbers belong to inactive results.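 Rule for the calls: active = replicate mean at 85% of control or lower with very high polarization wells dropped (limit read from the data); inactive = the rest.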

For this test, the target named is Guanine nucleotide-binding protein G(i) subunit alpha-3 (Rattus norvegicus) (UniProt P08753). Nature of the test: disruptors of GIV-Galphai3 protein-protein interaction – biochemical, fluorescence polarization, FITC-GIV GBA peptide, rat Galphai3, primary screen (AID 1224905). Particulars: Galpha-i3/FITC-GIV peptide fluorescence polarization, 90 min; stronger effect = lower value; scaled: aluminum fluoride 0%, vehicle 100%.
Turning to `CN(C)/C=C/c1nc(C(F)(F)F)c(C#N)s1`, the percent of control (FP) was 20.7% (active).

As for `O=C(Nc1ccc(-c2nc3ccccc3o2)cc1)C1COc2ccccc2O1` (centres undefined), the percent of control (FP) is 140%.

For the molecule `Cc1nc2ccc(S(=O)(=O)NCC(=O)Nc3nccs3)cc2s1`, the percent of control (FP) is 103%.

Consider `O=C(CSc1ncnc2ccccc12)Nc1nc2ccccc2s1`, for which the percent of control (FP) was 102%.

`CCS(=O)(=O)N1CCC2(CC1)Nc1ccc(Cl)cc1-n1cccc12`: the percent of control (FP) was 105%.

As to `CC(C)c1cc(C2CCCN2Cc2ccc(Br)cc2)no1` (centres undefined), the percent of control (FP) was 102%.

Consider `CC(=O)Oc1ccccc1C(=O)N1CCN(c2ccccc2F)CC1`, for which the percent of control (FP) was 101%.

As to `CC(=O)Oc1ccc(OC(C)=O)c2c1C1C=CC2CC1`, the percent of control (FP) is 101%.

As to `CC(=O)Oc1cccc2c1C(=O)C=CC2=O`, the percent of control (FP) is 77.8% (active).

`CCc1cc(C2CCCN2C(=O)NCC2CCCO2)on1` (centres undefined): the percent of control (FP) was 106%.

`O=C(NCc1ccccc1Cl)c1ccc2nc(N3CCOCC3)sc2c1`: the percent of control (FP) is 104%.

As for `CCOC(=O)C1(C)/C(=N\Nc2ccc(Br)cc2)C(=O)C(=O)N1c1ccccc1` (centres undefined), the percent of control (FP) was 101%.

With `CC(=O)N1CCc2cc(N3CC(C(=O)N4CCC5(CC4)OCCO5)CC3=O)ccc21` (centres undefined), the percent of control (FP) is 107%.

With `CCC(=O)N1CCc2cc(N3CC(C(=O)N4CCN(C(C)C)CC4)CC3=O)ccc21` (centres undefined), the percent of control (FP) was 72.7% (active).

Consider `CCC(NC(=O)C1CC(=O)N(c2ccc3c(c2)CCN3C(C)=O)C1)c1cccs1` (centres undefined), for which the percent of control (FP) was 102%.

On to `CCSCCOC(=O)C1=C(C)NC2=C(C(=O)CC(c3ccccc3)C2)C1c1ccc(OC)cc1OC` (centres undefined), for which the percent of control (FP) is 105%.

As to `Cc1cc(Nc2cccc(C(F)(F)F)c2)nc2ccc(NC(=O)CSc3ccncc3)cc12`, the percent of control (FP) is 102%.

As for `COc1ccc(N=C2NC(=O)/C(=C\c3ccc(OCC(C)C)cc3)S2)cc1`, the percent of control (FP) is 107%.

As to `Cc1cc2c(cc3n2CC(C)(C(=O)NC2CCCCC2)N(Cc2ccc(F)cc2)C3=O)o1` (centres undefined), the percent of control (FP) was 102%.

Regarding `CCn1c(C)nc2c1C(=O)c1ccccc1C2=O`, the percent of control (FP) was 102%.

For the molecule `Cc1cc2c3c(ccc(N)c3n1)C(=O)c1ccccc1-2`, the percent of control (FP) is -32.2% (active).

Turning to `Nc1nnc2c(n1)-c1ccccc1C2=O`, the percent of control (FP) is 100%.

For `S=C(Cc1ccc(CC(=S)N2CCOCC2)cc1)N1CCOCC1`, the percent of control (FP) is 105%.

For `O=C(Nc1ccc(O)c(-c2nc3ccccc3s2)c1)c1cccc(N2C(=O)CCC2=O)c1`, the percent of control (FP) is 104%.

For `CC1CCN(C(=O)CSc2nnc3c(n2)[nH]c2ccccc23)C(C)C1` (centres undefined), the percent of control (FP) is 108%.

In the case of `O=C1/C(=C/c2ccc(-c3cc(Cl)ccc3Cl)o2)C=C(c2ccccc2)N1c1ccc(F)cc1`, the percent of control (FP) was 112%.

Regarding `CCOc1ccc(NC(=O)c2cn(C)c3c(c(C)nn3-c3ccc(F)cc3)c2=O)cc1`, the percent of control (FP) was 101%.

As for `CC(C)/C=N/NC(=O)c1ccccc1`, the percent of control (FP) was 101%.

With `O=C(NN=c1c(=O)c2ccccc2c1=O)c1ccncc1`, the percent of control (FP) is 76.9% (active).

On to `CC(=O)Nn1nc2c(n1)C(=NNC(=O)c1ccccc1)c1nn(NC(C)=O)nc1C2=NNC(=O)c1ccccc1`, for which the percent of control (FP) is 99.9%.

On to `O=C(Nc1c(F)cc(F)cc1Br)c1cc(S(=O)(=O)N2CCN(c3ccccc3)CC2)ccc1F`, for which the percent of control (FP) was 106%.

Regarding `Cc1ccc(S(=O)(=O)N2CSC[C@@H]2C(=O)NCc2csc(C)n2)cc1`, the percent of control (FP) was 105%.

For `O=C(NCc1ccccn1)c1cc(-c2ccccc2O)no1`, the percent of control (FP) is 97.4%.

Turning to `CCn1c(=O)c(=O)n(CC(=O)NCCC2=CCCCC2)c2cccnc21`, the percent of control (FP) is 101%.

On to `N#CC(C#N)=C(C#N)/C=C/n1c2ccccc2c2ccccc21`, for which the percent of control (FP) is 69.8% (active).

For `Cn1c(=O)c(C#N)c(O)c2ccccc21`, the percent of control (FP) is 103%.

On to `COc1ccc(Cl)cc1C(=O)Nc1cccc(-c2nc3cccnc3s2)c1`, for which the percent of control (FP) is 108%.

With `COC(=O)C1C(=O)NC(SCC(=O)Nc2ccccc2C)=C(C#N)C1c1ccc(Cl)cc1Cl` (centres undefined), the percent of control (FP) is 104%.

Consider `COc1cc(/C=C2/N=C(c3ccccc3)N(C)C2=O)cc(OC)c1OC`, for which the percent of control (FP) was 106%.

Turning to `COc1cccc(C2=N/C(=C\c3ccccc3OC)C(=O)N2c2ccc(C)cc2)c1`, the percent of control (FP) was 94%.

Turning to `COc1cccc(C2=N/C(=C\c3ccccc3OC)C(=O)N2c2cccc(F)c2)c1`, the percent of control (FP) is 62.3% (active).

As for `COc1ccc(NC(=O)C2CCCN(c3nc4ncccc4n4cccc34)C2)cc1` (centres undefined), the percent of control (FP) was 128%.

In the case of `CC1CCN(C(=O)Cn2nc(Cc3ccncc3)c3ccccc3c2=O)CC1`, the percent of control (FP) was 101%.

As for `O=C1NC(=S)N(c2ccc(Br)cc2)C(=O)/C1=C/c1ccsc1`, the percent of control (FP) was 94.1%.

As to `Cn1cccc1/C=C1\C(=O)NC(=S)N(c2ccccc2)C1=O`, the percent of control (FP) is 80.1% (active).

In the case of `O=C1NC(=O)N(c2ccccc2)C(=O)C1=Cc1c2ccccc2cc2ccccc12`, the percent of control (FP) was 101%.

For `Cc1ccc2c(c1)N(C(=O)CSc1nc3ccccc3o1)C(C)(C)c1ssc(=S)c1-2`, the percent of control (FP) was 101%.

As for `COc1ccc(CNC(=O)c2cnc(N(C)C)nc2C)cc1`, the percent of control (FP) is 99%.

For the molecule `CCc1nn(CC(=O)NCc2ccc(OC)c(OC)c2)c(=O)c2cc3occc3n12`, the percent of control (FP) is 103%.

For `O=C(NCCCN1CCOCC1)C1CCN(c2cncnc2N2CCCCC2)CC1`, the percent of control (FP) was 113%.

With `CSc1ccc(C2C=C(c3ccc(Cl)s3)Nc3ncnn32)cc1` (centres undefined), the percent of control (FP) was -22.3% (active).

Consider `CC1=C(C(N)=O)C(c2ccc(Br)cc2)n2ncnc2N1` (centres undefined), for which the percent of control (FP) is 111%.

As to `COc1cccc(C2=CC(c3cccc(OC)c3)n3ncnc3N2)c1` (centres undefined), the percent of control (FP) was 96%.

In the case of `CC1=C(C(=O)Nc2ccccc2Cl)C(c2cccs2)n2ncnc2N1` (centres undefined), the percent of control (FP) is 98%.

In the case of `CSc1ccc(C2C=C(c3cccs3)Nc3ncnn32)cc1` (centres undefined), the percent of control (FP) is -22.3% (active).

Take `Cc1ccc(-n2nc3c(c2NC(=O)c2ccc(S(=O)(=O)N4CCCC4)cc2)CSC3)c(C)c1`: the percent of control (FP) is 102%.

With `O=C(c1cc2c(s1)-c1ccsc1CC2)N1CCN(c2ccccn2)CC1`, the percent of control (FP) was 109%.

Take `COc1ccc2oc(-c3noc(-c4ccnn4C)n3)c(C)c2c1`: the percent of control (FP) was 106%.

In the case of `Cc1cc(C)n(CC(=O)NC2CCCC2)c(=O)c1S(=O)(=O)c1ccc(Cl)cc1`, the percent of control (FP) was 104%.

Regarding `CCN1CCN(C(=O)c2sc3nc(C)nc(N4CCN(c5ccccn5)CC4)c3c2C)CC1`, the percent of control (FP) is 104%.

Take `COCCNC(=O)c1ccc(Cn2c(SCC(=O)NCc3ccccc3)nc3ccc(Br)cc3c2=O)cc1`: the percent of control (FP) is 97.2%.

Take `CCOC(=O)c1ccc(-c2ccc(/C=C(\C#N)C(=O)Nc3ccc(C)cc3)o2)cc1`: the percent of control (FP) was 99.2%.

For `N#C/C(=C\c1ccc(-c2ccccc2)o1)C(=O)Nc1ccccc1`, the percent of control (FP) was 36.5% (active).

On to `CCOC(=O)c1ccc(-c2ccc(/C=C(\C#N)C(=O)Nc3ccc(OCC)cc3)o2)cc1`, for which the percent of control (FP) is 102%.

With `CCNC(=O)N1CCCC(c2nc(C(C)C)cs2)C1` (centres undefined), the percent of control (FP) was 105%.

With `O=C(CN1CCN(C(=O)c2cccc(Cl)c2)CC1)Nc1nnc(-c2ccccc2)s1`, the percent of control (FP) was 98.2%.

In the case of `CCOc1ccc(NC(=O)Cn2c(SCC)nc3ccccc32)cc1`, the percent of control (FP) is 98.2%.

For `Cc1cc2nc3c(=O)n(Cc4ccccc4)c(=O)[nH]c3nc2cc1N`, the percent of control (FP) is 72.2% (active).

Turning to `O=c1[nH]c2c(c(=O)n1Cc1ccccc1)CCC2`, the percent of control (FP) was 110%.

As for `Cc1cc2nc3[nH]c4ccccc4c3nc2cc1C`, the percent of control (FP) was 109%.

As to `Cc1sc(NC(=O)c2ccccc2)c(C(Nc2ccccn2)c2cccnc2)c1C` (centres undefined), the percent of control (FP) was 102%.

Take `Fc1ccccc1CSc1nccn2nc(-c3ccc(Br)cc3)cc12`: the percent of control (FP) is 111%.

For `Cc1ccc(C2(c3ccc(C)cc3)CC2C(=O)Nc2cccc(C(F)(F)F)c2)cc1` (centres undefined), the percent of control (FP) is 104%.

Regarding `Cc1ccc(OCCn2cc(/C=C3/C(=O)Nc4cc(Cl)ccc43)c3ccccc32)cc1C`, the percent of control (FP) was 35.2% (active).

With `COc1ccccc1OCCCn1cc(/C=C2/C(=N)N3C=CSC3=NC2=O)c2ccccc21`, the percent of control (FP) was 103%.

`Cc1ccc(OCCn2cc(C(=O)c3ccccc3)c3ccccc32)cc1`: the percent of control (FP) was 99.6%.

As for `CCc1cc2c(NC3CCCCC3)ncnc2s1`, the percent of control (FP) is 117%.

As for `O=c1sc2ccccc2c2nc[nH]c12`, the percent of control (FP) was 99.7%.

As to `O=C(Cn1c2c(c(-c3ccccc3Cl)cc1=O)CCC2)NC1CCCCC1`, the percent of control (FP) is 108%.

For `CNC(=O)CSc1nnc2[nH]c(=O)cc(C)n12`, the percent of control (FP) is 108%.

Consider `Cc1c(Cc2ccccc2)c(N2CCCCC2)n2c(nc3ccccc32)c1C#N`, for which the percent of control (FP) was 146%.

On to `Cc1cc(N2CCN(c3ccccc3)CC2)n2c(nc3ccccc32)c1C#N`, for which the percent of control (FP) was 99.6%.

Take `N#Cc1c(N2CCCCCC2)ncc2cc3ccccc3nc12`: the percent of control (FP) is -18.1% (active).

Consider `Cc1cc(C(=O)NCCN2CCOCC2)c2c(=O)n(C)c(=O)n(C)c2n1`, for which the percent of control (FP) is 105%.

Take `CC(=O)N[C@H]1[C@H](Oc2ccc(C)cc2)O[C@H](COC(C)=O)[C@@H](OC(C)=O)[C@@H]1OC(C)=O`: the percent of control (FP) is 131%.

With `CCOC(=O)CSc1ncn[nH]1`, the percent of control (FP) was 102%.

Consider `CCn1nc(C)cc1-c1nnc(SCC(=O)c2ccc(C)cc2)o1`, for which the percent of control (FP) is 108%.

As to `CCN(CC)c1ccc2cc(C(=O)O)c(=O)oc2c1`, the percent of control (FP) was 115%.

Regarding `CCN(CC)c1ccc2oc(=O)c(C)nc2c1`, the percent of control (FP) was -40.7% (active).

Regarding `CCN(CC)c1ccc2cc(-c3csc(-c4nc(-c5cc6ccc(N(CC)CC)cc6oc5=O)cs4)n3)c(=O)oc2c1`, the percent of control (FP) was 109%.

On to `Cc1c(C(=O)NCC(c2ccccc2)c2c[nH]c3ccccc23)oc2ccc(Cl)cc12` (centres undefined), for which the percent of control (FP) was 105%.

For the molecule `O=C1NC(=O)/C(=C/c2ccc(-c3ccc([N+](=O)[O-])cc3Br)o2)S1`, the percent of control (FP) is 62.8% (active).

Consider `N=C1S/C(=C\c2ccc(-c3ccccc3[N+](=O)[O-])o2)C(=O)N1c1ccc2c(c1)OCO2`, for which the percent of control (FP) is 114%.

On to `O=C1N/C(=C/c2ccc(-c3ccc([N+](=O)[O-])cc3Br)o2)C(=O)N1Cc1ccc(Cl)cc1`, for which the percent of control (FP) is 146%.
